Tests used:
[1] = target: T1, cat T1R1/T1R3 receptor (Felis catus, UniProt E3UMS2)
[2] = target: T1, cat T1R1/T1R3 receptor; test: Activation of cat T1R1/T1R3 receptor by nucleotide derivatives alone, with alanine and/or IMP; HEK293 cells, intracellular calcium fluorescence (Example 1); assay type: cell-based; details: read-out: EC50- with IMP; with 0.2 mM IMP

By UniProt entry, the sequences of proteins in these tests, tags left out. Residues count along the entry.
UniProt E3UMS2, 1-296: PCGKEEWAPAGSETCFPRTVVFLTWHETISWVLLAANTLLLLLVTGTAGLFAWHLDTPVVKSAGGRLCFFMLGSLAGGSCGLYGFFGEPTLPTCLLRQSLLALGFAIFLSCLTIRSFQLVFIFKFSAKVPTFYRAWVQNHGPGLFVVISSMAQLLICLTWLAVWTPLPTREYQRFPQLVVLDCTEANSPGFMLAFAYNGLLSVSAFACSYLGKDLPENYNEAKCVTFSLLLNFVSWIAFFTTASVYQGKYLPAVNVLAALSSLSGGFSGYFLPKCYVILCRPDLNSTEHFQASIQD

Structure (SMILES) | Activity [1] | EC50 [2] [µM] | Threshold [1] [mM]
O=c1ccn([C@H]2C[C@H](O)[C@@H](COP(O)(O)=S)O2)c(=O)[nH]1 | active |  | 
Nc1nc2c(ncn2[C@H]2C[C@H](OP(=O)(O)O)[C@@H](COP(=O)(O)O)O2)c(=O)[nH]1 | active |  | 
O=C(Nc1ncnc2c1ncn2[C@@H]1O[C@H](COP(=O)(O)O)[C@@H](O)[C@H]1O)c1ccccc1 |  | 720 | 0.3

Source: US11185100B2 (priority 2014, dated 2021)
